The values that follow come from patent US20260384450A1, “MACROCYCLIC AMINOPYRIDINE COMPOUNDS AS EGFR INHIBITORS” (published 2026).

Amino acid sequences for entries named in this document (tags omitted). A change or cut given only in a name is not applied to a line headed by its entry. Chains listed by the source or under a name are the forms on record and can include a tag or linker. Residues count along the entry.
UniProt P00533, 25-1210 limits assumed: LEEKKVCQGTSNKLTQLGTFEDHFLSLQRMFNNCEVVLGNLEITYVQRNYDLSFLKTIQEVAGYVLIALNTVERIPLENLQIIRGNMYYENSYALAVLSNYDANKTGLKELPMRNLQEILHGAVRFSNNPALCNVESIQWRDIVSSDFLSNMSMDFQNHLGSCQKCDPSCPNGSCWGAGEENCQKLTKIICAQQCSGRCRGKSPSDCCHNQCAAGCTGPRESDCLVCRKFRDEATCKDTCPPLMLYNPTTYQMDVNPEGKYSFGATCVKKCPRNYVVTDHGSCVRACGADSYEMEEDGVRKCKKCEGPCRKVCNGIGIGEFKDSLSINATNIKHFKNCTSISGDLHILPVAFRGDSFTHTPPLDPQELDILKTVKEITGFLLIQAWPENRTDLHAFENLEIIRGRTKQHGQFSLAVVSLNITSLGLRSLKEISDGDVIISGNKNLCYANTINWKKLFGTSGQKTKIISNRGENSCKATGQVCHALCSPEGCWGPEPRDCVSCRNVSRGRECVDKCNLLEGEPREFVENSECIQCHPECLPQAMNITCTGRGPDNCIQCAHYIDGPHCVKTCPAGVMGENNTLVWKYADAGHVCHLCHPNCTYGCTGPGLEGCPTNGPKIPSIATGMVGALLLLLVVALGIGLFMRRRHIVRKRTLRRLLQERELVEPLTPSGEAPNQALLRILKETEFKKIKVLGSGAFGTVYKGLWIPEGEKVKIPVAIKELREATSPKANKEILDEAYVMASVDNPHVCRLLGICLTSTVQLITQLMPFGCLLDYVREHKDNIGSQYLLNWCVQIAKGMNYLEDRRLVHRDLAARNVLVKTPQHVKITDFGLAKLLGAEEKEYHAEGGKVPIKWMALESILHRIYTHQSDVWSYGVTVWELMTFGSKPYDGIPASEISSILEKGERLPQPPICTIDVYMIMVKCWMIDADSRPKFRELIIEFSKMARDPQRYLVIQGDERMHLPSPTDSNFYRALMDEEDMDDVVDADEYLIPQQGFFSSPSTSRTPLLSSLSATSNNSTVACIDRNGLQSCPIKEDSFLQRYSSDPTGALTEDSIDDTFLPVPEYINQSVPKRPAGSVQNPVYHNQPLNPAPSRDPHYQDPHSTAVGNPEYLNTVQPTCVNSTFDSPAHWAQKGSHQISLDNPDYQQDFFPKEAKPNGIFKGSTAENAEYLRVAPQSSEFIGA
UniProt P00533, 25-1210 C797S/L858R limits assumed: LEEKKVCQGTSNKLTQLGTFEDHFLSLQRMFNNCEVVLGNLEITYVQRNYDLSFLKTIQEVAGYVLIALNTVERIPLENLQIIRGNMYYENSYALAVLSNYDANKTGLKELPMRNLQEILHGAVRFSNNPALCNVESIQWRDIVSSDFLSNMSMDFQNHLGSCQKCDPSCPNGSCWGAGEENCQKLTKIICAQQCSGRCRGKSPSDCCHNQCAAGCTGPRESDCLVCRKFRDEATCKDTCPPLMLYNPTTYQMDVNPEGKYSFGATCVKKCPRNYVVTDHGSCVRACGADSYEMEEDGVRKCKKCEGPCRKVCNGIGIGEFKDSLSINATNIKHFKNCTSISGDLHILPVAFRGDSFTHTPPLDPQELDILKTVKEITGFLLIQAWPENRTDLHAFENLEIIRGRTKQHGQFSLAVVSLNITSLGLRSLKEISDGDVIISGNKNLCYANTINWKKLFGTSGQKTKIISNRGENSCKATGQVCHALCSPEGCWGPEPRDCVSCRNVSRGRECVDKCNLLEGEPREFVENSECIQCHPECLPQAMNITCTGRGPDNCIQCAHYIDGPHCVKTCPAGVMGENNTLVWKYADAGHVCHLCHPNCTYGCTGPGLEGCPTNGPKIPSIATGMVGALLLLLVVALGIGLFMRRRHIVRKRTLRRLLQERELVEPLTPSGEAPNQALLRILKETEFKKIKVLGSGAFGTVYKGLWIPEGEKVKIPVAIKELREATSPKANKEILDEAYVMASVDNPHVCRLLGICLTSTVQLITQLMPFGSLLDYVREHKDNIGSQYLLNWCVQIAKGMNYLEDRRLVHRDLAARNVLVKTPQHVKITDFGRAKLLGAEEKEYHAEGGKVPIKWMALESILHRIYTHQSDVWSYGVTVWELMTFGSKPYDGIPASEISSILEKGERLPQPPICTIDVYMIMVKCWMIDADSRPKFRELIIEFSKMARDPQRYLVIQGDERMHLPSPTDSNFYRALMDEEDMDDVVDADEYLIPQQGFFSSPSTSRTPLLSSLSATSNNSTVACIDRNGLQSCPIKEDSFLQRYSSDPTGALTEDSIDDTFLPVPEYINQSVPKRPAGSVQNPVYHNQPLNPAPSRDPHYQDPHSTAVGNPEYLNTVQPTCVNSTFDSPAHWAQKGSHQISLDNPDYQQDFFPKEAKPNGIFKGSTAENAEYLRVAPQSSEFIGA
UniProt P00533, 25-1210 T790M/C797S/L858R limits assumed: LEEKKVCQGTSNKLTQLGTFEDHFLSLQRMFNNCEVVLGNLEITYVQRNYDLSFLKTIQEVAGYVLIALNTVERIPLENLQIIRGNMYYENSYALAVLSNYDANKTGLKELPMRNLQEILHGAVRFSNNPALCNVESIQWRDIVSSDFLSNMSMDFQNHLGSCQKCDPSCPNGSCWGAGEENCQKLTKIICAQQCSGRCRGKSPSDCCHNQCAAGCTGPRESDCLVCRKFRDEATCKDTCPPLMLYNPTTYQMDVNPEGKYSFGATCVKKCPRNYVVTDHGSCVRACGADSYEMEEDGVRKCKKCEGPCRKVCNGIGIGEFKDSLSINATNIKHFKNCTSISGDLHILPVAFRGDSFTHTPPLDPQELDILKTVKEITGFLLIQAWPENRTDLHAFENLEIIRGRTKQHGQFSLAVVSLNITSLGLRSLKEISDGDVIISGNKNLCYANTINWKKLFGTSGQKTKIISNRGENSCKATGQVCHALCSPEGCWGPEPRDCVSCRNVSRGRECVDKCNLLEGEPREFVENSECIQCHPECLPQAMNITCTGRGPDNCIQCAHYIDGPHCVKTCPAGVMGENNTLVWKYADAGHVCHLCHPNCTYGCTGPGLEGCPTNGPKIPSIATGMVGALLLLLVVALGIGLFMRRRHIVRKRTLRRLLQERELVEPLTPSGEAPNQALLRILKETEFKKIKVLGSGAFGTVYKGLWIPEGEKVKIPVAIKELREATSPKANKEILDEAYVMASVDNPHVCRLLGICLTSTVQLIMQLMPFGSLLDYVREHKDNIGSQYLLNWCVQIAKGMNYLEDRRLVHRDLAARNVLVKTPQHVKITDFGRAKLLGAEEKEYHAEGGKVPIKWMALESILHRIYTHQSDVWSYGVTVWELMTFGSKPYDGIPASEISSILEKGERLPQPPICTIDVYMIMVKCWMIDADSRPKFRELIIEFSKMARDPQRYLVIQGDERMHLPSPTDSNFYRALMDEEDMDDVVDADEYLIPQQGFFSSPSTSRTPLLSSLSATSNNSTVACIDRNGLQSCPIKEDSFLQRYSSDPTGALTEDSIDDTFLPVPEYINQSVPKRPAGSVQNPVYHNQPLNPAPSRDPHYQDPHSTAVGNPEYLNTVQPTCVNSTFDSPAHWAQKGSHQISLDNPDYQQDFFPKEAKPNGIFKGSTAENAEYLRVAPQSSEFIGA
UniProt P00533, with tags, fused parts or gaps DEL746-750/C797S limits assumed: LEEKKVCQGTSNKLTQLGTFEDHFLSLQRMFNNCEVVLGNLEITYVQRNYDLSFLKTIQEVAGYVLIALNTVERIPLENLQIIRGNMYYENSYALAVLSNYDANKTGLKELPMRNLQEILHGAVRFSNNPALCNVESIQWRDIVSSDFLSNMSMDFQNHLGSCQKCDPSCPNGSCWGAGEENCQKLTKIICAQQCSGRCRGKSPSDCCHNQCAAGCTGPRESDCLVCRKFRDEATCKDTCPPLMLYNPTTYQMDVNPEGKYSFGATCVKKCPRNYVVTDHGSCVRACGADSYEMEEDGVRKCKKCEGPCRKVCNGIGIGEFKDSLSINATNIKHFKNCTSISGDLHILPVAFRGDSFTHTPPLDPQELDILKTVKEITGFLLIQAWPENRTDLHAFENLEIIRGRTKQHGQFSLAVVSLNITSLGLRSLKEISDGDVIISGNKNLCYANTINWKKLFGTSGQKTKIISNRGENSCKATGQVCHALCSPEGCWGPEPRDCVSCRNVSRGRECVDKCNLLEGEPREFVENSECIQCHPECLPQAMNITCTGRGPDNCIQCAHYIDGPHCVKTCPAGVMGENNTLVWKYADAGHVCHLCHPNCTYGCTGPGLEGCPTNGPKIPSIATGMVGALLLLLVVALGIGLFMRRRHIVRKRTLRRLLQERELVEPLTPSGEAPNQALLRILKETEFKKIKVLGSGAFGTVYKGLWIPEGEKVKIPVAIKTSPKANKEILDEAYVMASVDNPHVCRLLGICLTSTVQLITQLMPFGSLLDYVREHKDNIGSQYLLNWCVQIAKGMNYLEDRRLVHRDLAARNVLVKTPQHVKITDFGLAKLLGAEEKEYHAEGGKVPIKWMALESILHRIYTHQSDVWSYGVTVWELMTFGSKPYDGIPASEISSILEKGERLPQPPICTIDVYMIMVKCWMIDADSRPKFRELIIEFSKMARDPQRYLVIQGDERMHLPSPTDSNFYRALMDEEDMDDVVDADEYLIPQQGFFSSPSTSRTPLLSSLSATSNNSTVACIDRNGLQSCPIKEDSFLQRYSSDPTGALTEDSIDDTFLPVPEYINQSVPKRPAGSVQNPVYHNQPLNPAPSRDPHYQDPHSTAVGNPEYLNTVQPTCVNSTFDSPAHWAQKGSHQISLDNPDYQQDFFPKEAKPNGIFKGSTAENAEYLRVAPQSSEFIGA
UniProt P00533, with tags, fused parts or gaps DEL746-750/T790M/C797S limits assumed: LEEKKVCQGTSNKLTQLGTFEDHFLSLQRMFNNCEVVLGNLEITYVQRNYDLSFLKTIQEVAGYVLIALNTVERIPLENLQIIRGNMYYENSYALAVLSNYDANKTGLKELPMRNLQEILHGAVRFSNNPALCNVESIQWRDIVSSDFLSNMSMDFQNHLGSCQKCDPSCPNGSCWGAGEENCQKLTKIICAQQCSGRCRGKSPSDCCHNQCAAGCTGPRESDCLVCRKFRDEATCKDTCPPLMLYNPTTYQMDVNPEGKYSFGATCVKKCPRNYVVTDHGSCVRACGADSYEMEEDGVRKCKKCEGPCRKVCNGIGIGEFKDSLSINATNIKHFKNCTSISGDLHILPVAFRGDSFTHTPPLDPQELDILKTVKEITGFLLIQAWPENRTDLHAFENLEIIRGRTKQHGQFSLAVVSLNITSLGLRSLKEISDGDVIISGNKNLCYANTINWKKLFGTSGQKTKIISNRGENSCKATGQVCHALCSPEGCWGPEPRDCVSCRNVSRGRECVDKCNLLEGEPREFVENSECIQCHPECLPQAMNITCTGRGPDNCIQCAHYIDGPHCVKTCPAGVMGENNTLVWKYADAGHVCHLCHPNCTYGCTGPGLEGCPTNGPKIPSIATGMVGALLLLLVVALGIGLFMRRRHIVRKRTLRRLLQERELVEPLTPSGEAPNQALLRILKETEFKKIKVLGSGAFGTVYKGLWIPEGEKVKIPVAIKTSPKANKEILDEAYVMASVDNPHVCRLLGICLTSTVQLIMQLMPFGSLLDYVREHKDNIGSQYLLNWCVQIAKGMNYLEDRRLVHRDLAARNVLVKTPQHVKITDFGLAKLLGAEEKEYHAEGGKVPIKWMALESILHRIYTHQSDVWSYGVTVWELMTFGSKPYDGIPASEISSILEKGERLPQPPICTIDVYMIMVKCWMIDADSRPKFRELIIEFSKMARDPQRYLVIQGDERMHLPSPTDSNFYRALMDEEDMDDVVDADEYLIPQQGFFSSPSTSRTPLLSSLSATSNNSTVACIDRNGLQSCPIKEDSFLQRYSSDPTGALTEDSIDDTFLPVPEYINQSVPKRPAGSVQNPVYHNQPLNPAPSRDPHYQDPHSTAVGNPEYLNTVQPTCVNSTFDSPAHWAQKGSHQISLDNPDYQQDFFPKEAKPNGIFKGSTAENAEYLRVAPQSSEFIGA

Read-outs that look alike come from different tables or passages of the source. A value given as a limit tells only on which side of the number the result lay.

In assay [1] the target is EGFR D19TMCS (del19/T790M/C797S) (Homo sapiens, UniProt P00533, C797S/DEL746-750/T790M). Put plainly: Biochemical EGFR kinase assay (Lance Ultra TR-FRET), triple mutant del19/T790M/C797S. A general note: TR-FRET usually uses a lanthanide donor and a delayed reading to cut background.
Assay [2] concerns the target EGFR LRTMCS (L858R/T790M/C797S) (Homo sapiens, UniProt P00533, C797S/L858R/T790M). Put plainly: Biochemical EGFR kinase assay (Lance Ultra TR-FRET), triple mutant L858R/T790M/C797S.
In a further assay the target is EGFR D19CS (del19/C797S) (Homo sapiens, UniProt P00533, C797S/DEL746-750). Kind of assay: Biochemical EGFR kinase assay (Lance Ultra TR-FRET), double mutant del19/C797S.
For the next assay, the target named is EGFR LRCS (L858R/C797S) (Homo sapiens, UniProt P00533, C797S/L858R). Kind of assay: Biochemical EGFR kinase assay (Lance Ultra TR-FRET), double mutant L858R/C797S.
In another assay the target is EGFR WT (Homo sapiens, UniProt P00533). Put plainly: Biochemical EGFR kinase assay (Lance Ultra TR-FRET), wildtype.
Where [3] appears, read: read-out: IC50, EGFR D19TMCS, Km, ATP at Km, EGFR del19/T790M/C797S.
Setting [4] is: read-out: IC50, EGFR LRTMCS, 1 mM, ATP 1 mM, EGFR L858R/T790M/C797S.
[5] abbreviates: read-out: IC50, EGFR LRTMCS, Km, ATP at Km, EGFR L858R/T790M/C797S.
[6] abbreviates: read-out: IC50, EGFR-D19CS, 1 mM, ATP 1 mM, EGFR del19/C797S.
[7] abbreviates: read-out: IC50, EGFR-D19CS, Km, ATP at Km, EGFR del19/C797S.
Where [8] appears, read: read-out: IC50, EGFR-LRCS, 1 mM, ATP 1 mM, EGFR L858R/C797S.
Where [9] appears, read: read-out: IC50, EGFR-LRCS, Km, ATP at Km, EGFR L858R/C797S.
[10] abbreviates: read-out: IC50, EGFR WT, 1 mM, ATP 1 mM, EGFR wildtype.
[11] abbreviates: read-out: IC50, EGFR WT, Km, ATP at Km, EGFR wildtype.
[12] abbreviates: read-out: EGFR D19TMCS IC50, ATP 1 mM.
The mark [13] stands for this setting: read-out: EGFR D19TMCS IC50, ATP Km.
Where [14] appears, read: read-out: EGFR LRTMCS IC50, ATP 1 mM.
[15] abbreviates: read-out: EGFR LRTMCS IC50, ATP Km.
The mark [16] stands for this setting: read-out: EGFR D19CS IC50, ATP 1 mM.
[17] abbreviates: read-out: EGFR D19CS IC50, ATP Km.
[18] abbreviates: read-out: EGFR LRCS IC50, ATP 1 mM.
The mark [19] stands for this setting: read-out: EGFR LRCS IC50, ATP Km.
[20] abbreviates: read-out: EGFR WT IC50, ATP 1 mM.

One may read the IC50 as the point on the concentration scale where inhibition reaches its midpoint. `Cc1nn(C)c2c1-c1nccc(n1)Nc1cc(c(-c3cnc(CN4CCC(F)(F)CC4)cn3)cn1)NCC[C@H](C)O2`: the half-inhibitory concentration (IC50) in assay [1] (setting [3]) is under 0.01 µM; in assay [2] (setting [4]), under 0.01 µM; in assay [2] (setting [5]) it was under 0.01 µM; at EGFR D19CS (del19/C797S) (setting [6]), under 0.01 µM; on EGFR D19CS (del19/C797S) (setting [7]) it was under 0.01 µM; at EGFR LRCS (L858R/C797S) (setting [8]), 0.01 to 0.1 µM. The IC50 on EGFR LRCS (L858R/C797S) (setting [9]) is under 0.01 µM; at EGFR WT (setting [10]) it was over 1 µM; at EGFR WT (setting [11]) it was under 0.01 µM.

With `Cc1nn(C)c2c1-c1nccc(n1)Nc1cc(c(-c3ncc(CN4CCN(C)CC4)cc3F)cn1)NCC[C@H](C)O2`, the IC50 (in assay [1] (setting [12]); in assay [1] (setting [13]); in assay [2] (setting [14]); in assay [2] (setting [15]); at EGFR D19CS (del19/C797S) (setting [16]); at EGFR D19CS (del19/C797S) (setting [17])) was under 0.01 µM throughout. For the same compound, the IC50 at EGFR LRCS (L858R/C797S) (setting [18]) is under 0.01 µM; at EGFR LRCS (L858R/C797S) (setting [19]), under 0.01 µM; at EGFR WT (setting [20]), over 1 µM; on EGFR WT (read-out: EGFR WT IC50, ATP Km) it was under 0.01 µM.

`Cn1ncc2c1OC[C@@H](F)CNc1cc(ncc1-c1ccn(C(F)F)n1)Nc1ccnc-2n1`: the 50% inhibitory concentration (IC50) is under 0.01 µM in assay [1] (setting [12]); under 0.01 µM in assay [1] (setting [13]); 0.01 to 0.1 µM in assay [2] (setting [14]); under 0.01 µM in assay [2] (setting [15]); over 1 µM at EGFR D19CS (del19/C797S) (setting [16]); 0.01 to 0.1 µM at EGFR D19CS (del19/C797S) (setting [17]). The IC50 is over 1 µM at EGFR LRCS (L858R/C797S) (setting [18]); 0.01 to 0.1 µM at EGFR LRCS (L858R/C797S) (setting [19]); over 1 µM on EGFR WT (setting [20]); 0.01 to 0.1 µM at EGFR WT (read-out: EGFR WT IC50, ATP Km).

Take `Cc1nn(C)c2c1-c1nccc(n1)Nc1cc(c(-c3cnc(C(C)(C)O)cn3)cn1)N[C@@H](C)CCO2`: the IC50 in assay [1] (setting [3]) was under 0.01 µM; in assay [2] (setting [4]) it was under 0.01 µM; in assay [2] (setting [5]), under 0.01 µM; on EGFR D19CS (del19/C797S) (setting [6]) it was under 0.01 µM; at EGFR D19CS (del19/C797S) (setting [7]), under 0.01 µM; on EGFR LRCS (L858R/C797S) (setting [8]), 0.01 to 0.1 µM. Further, the IC50 is under 0.01 µM at EGFR LRCS (L858R/C797S) (setting [9]), over 1 µM at EGFR WT (setting [10]) and under 0.01 µM on EGFR WT (setting [11]).

Consider `Cn1ncc2c1OC[C@H](F)CNc1cc(ncc1-c1ccn(C(F)F)n1)Nc1ccnc-2n1`, for which the IC50 in assay [1] (setting [12]) is 0.01 to 0.1 µM; in assay [1] (setting [13]), under 0.01 µM; in assay [2] (setting [14]), 0.1 to 1 µM; in assay [2] (setting [15]) it was under 0.01 µM; on EGFR D19CS (del19/C797S) (setting [16]), over 1 µM; on EGFR D19CS (del19/C797S) (setting [17]), over 1 µM. The IC50 was over 1 µM on EGFR LRCS (L858R/C797S) (setting [18]); over 1 µM at EGFR LRCS (L858R/C797S) (setting [19]); over 1 µM on EGFR WT (setting [20]); over 1 µM on EGFR WT (read-out: EGFR WT IC50, ATP Km).

For the compound `C[C@H]1CCOc2c(cnn2C)-c2nccc(n2)Nc2cc(c(-c3cc(OC(F)F)ccn3)cn2)N1`, the 50% inhibitory concentration (IC50) in assay [1] (setting [12]) was under 0.01 µM; in assay [1] (setting [13]) it was under 0.01 µM; in assay [2] (setting [14]) it was under 0.01 µM; in assay [2] (setting [15]) it was under 0.01 µM; at EGFR D19CS (del19/C797S) (setting [16]), 0.01 to 0.1 µM; at EGFR D19CS (del19/C797S) (setting [17]), under 0.01 µM. In addition, the IC50 was 0.1 to 1 µM at EGFR LRCS (L858R/C797S) (setting [18]); under 0.01 µM at EGFR LRCS (L858R/C797S) (setting [19]); over 1 µM at EGFR WT (setting [20]); 0.01 to 0.1 µM on EGFR WT (read-out: EGFR WT IC50, ATP Km).

Take `Cc1nn(C)c2c1-c1nccc(n1)Nc1cc(c(-c3ncc(CN4CC(C(C)(C)F)C4)cc3F)cn1)NCC[C@H](C)O2`: the IC50 (in assay [1] (setting [3]); in assay [2] (setting [4]); in assay [2] (setting [5]); on EGFR D19CS (del19/C797S) (setting [6]); at EGFR D19CS (del19/C797S) (setting [7]); on EGFR LRCS (L858R/C797S) (setting [8])) was under 0.01 µM each time. For the same compound, the IC50 was under 0.01 µM at EGFR LRCS (L858R/C797S) (setting [9]), over 1 µM at EGFR WT (setting [10]) and under 0.01 µM at EGFR WT (setting [11]).

Turning to `C[C@H]1CCOc2c(cnn2C)-c2nccc(n2)Nc2cc(c(-c3ncc(C(C)(C)O)cc3F)cn2)N1`, the IC50 in assay [1] (setting [12]) was under 0.01 µM; in assay [1] (setting [13]), under 0.01 µM; in assay [2] (setting [14]), under 0.01 µM; in assay [2] (setting [15]), under 0.01 µM; on EGFR D19CS (del19/C797S) (setting [16]), 0.01 to 0.1 µM; on EGFR D19CS (del19/C797S) (setting [17]) it was under 0.01 µM. The 50% inhibitory concentration (IC50) at EGFR LRCS (L858R/C797S) (setting [18]) is 0.1 to 1 µM; at EGFR LRCS (L858R/C797S) (setting [19]), under 0.01 µM; on EGFR WT (setting [20]), over 1 µM; at EGFR WT (read-out: EGFR WT IC50, ATP Km) it was 0.01 to 0.1 µM.
